Reference: article PMC10077450 (ACS Omega, 2023)
Marks after values point to notes of the source that are not given here.

By UniProt entry, the sequences of proteins in these tests, tags left out. Residues count along the entry.
UniProt P06276, 29-602, species assumed: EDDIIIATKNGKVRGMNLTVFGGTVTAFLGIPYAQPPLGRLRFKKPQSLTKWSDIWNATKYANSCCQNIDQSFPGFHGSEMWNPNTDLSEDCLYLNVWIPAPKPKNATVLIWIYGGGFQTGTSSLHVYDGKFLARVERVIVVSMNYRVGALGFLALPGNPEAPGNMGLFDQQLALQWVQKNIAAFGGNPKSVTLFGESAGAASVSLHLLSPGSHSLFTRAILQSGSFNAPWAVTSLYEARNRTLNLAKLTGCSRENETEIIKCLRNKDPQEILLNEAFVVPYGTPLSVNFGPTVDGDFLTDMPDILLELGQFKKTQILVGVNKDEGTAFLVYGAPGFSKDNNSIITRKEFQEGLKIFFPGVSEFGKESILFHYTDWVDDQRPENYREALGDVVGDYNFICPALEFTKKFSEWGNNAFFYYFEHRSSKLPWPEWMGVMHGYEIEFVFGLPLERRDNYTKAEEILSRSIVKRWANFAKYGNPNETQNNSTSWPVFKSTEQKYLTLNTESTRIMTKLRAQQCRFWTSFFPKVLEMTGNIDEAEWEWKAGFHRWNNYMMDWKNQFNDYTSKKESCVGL

Target: butyryl cholinesterase (BChE) (Homo sapiens, UniProt P06276)
Experiment: butyryl cholinesterase inhibition assay
Type: biochemical
Conditions: mean ± SEM, triplicate

Compound: CNC(=O)Oc1ccc2c(c1)[C@]1(C)CCN(C)[C@@H]1N2C [eserine, reference compound]
- BChE inhibition (%) at 0.5 mM: 82.82±1.09^b %
